# Apparent affinities of Ab-14 variants for a coronavirus HR2 peptide

Target: peptide PDVDLGDISGINAS, taken from heptad repeat 2 (HR2) of SARS-CoV-2 spike.

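Variants in AAYL49 differ from the parent at up to three CDR positions; double and triple changes were sampled at random. In AlphaSeq, yeast of one mating type display the scFv and yeast of the other type display the target. The frequency of each diploid, read from paired DNA barcodes, reflects how well the two displayed proteins bind. Read counts were normalised to the haploid input and turned into Kd by a linear fit to BCL2-family pairs of known affinity, for each replicate. The assay was run in three technical replicates.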

Each scFv is VH, a (GGGGS)3 linker, VL, as in the parent Ab-14, and differs from it in the CDRs of the heavy chain only.
VH: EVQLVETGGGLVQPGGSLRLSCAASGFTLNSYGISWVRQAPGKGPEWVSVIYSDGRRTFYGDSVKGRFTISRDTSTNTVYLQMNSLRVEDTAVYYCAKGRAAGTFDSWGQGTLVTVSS
VL: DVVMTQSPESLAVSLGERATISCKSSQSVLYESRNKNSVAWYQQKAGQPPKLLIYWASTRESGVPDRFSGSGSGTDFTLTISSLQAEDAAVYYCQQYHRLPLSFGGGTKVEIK

The parent's heavy chain CDRs are GFTLNSYGIS, VIYSDGRRTFYGDSVK, GRAAGTFDS; each variant's own CDRs replace them letter for letter.
Every variant below is changed at R57 of the VH (sequential numbering).
Values are log10 of the apparent Kd in nM; lower means stronger binding.
Averages over replicates are reported, and they cover detected replicates only.
A pair that was not seen in that replicate is written "ND"; this usually means weak binding, but a binder can also be missed.
For reference, the parent read 0.65 as the reference entry and 4.11 (one replicate of three) as a member of this library.
As a blank, each scFv also met three strains without target: over library AAYL49, 15% of these pairings were detected, typically at 4.06 and seldom below 2.83. The control count says in how many pairings with the empty strains this scFv gave a signal.

The variant GFTLNVYGIS | VIYSGGRGTFYGDSVK | GRAAGTFDS showed ND, 3.88, 4.46 (mean 4.17; controls 7 of 9). With GFTLNMYGIS | VIYSDGRGTFYGDSVK | GRAAGLFDS the result was ND, 3.43, ND (controls 0 of 9). The variant GFTLNSYGIS | VIYSKGRMTFYGQSVK | GRAAGTFDS showed 2.75, ND, ND (controls 0 of 9). The variant GFTLNSRGIS | VIYSDGRCTFYGDSVK | GRAAGTFDS gave ND, ND, ND (controls 0 of 9). With GFTLNSYGGS | VIYSDGRVTFYGDSVK | GRAAGTKDS the result was 6.62, ND, 4.61 (mean 5.62; controls 6 of 9). For GFTLNSAGIS | VIYSDGRPTFYGDSVK | GRTAGTFDS, the assay gave 5.33, ND, 5.98 (mean 5.66; controls 3 of 9).

The variant GFTLNSYGIS | VIYSDGRNTFYGDSVK | GQAAGTFDS showed 2.89, 2.90, ND (mean 2.90; controls 0 of 9). The variant GFTLNSYGPS | VCYSDGRKTFYGDSVK | GRAAGTFDS gave ND, ND, ND (controls 0 of 9). With GFTLNSYGIS | VIYSDGRWTFYGDSVK | GNAAGTFDP the result was ND, ND, ND (controls 1 of 9). The variant GFTLNSYGIS | VIYSDTRPTFYGDSVK | GRAAGTFDS gave ND, ND, ND (controls 0 of 9). The variant GFTLNSYGIT | VIYSDGRATFYGDSVK | GRAAGTFDV gave ND, 4.04, ND (controls 2 of 9). With GFTLNSYGIS | VIYSDGFFTFYDDSVK | GRAAGTFDS the result was 4.98, 4.01, 6.19 (mean 5.06; controls 5 of 9).

The variant GFTLNSYGIS | VIYSDGRTTFYGDSVK | CRNAGTFDS showed ND, ND, ND (controls 0 of 9). The variant GFTLKQYGIS | VIYSDGRITFYGDSVK | GRAAGTFDS gave ND, 2.91, ND (controls 3 of 9). The variant GFTLNSQGIS | VIYSDGRNEFYGDSVK | GRAAGTFDS gave ND, ND, ND (controls 0 of 9). The variant GFTLNSYGIS | VIYSDGREFFYLDSVK | GRAAGTFDS showed ND, ND, ND (controls 1 of 9). The variant GFTLNSYGIS | VIYSDGRDTFYGDSVK | GRAAVTFDS gave ND, ND, ND (controls 3 of 9). With GFTLNSYGIS | VIYSDGRMTFYGDSVC | GRAAGWFDS the result was ND, 3.74, ND (controls 1 of 9).

For GFTLNSYGIS | AIYSDGRGTFYGDSVK | GRAAGTFDM, the assay gave ND, ND, ND (controls 0 of 9). The variant GFTLNSYGIK | VIYADGRLTFYGDSVK | GRAAGTFDS showed ND, ND, ND (controls 0 of 9). The variant GFTLNSYGIS | VIYSDGRWTFYGFSVK | GRFAGTFDS gave 5.20, ND, ND (controls 2 of 9). For GFTLNSYGIS | RQYSDGRETFYGDSVK | GRAAGTFDS, the assay gave ND, ND, 3.20 (controls 1 of 9). With GFTLNSYGNS | VIYSDGRATFYGDSAK | GRAAGTFDS the result was ND, ND, ND (controls 0 of 9). The variant GFTLNSYGIS | VIYEDGRPTFYGDSVK | GRAAGTFDS gave ND, ND, ND (controls 0 of 9).

The variant GFTLRSYGIS | VIYSDGRQTFYGDSVK | GRAAGTYDS showed ND, 3.59, ND (controls 0 of 9). With GFTLNSYGIS | VIYSDGRITFYGDSVK | LRAAGTVDS the result was ND, ND, ND (controls 0 of 9). With GFTWNSYGIS | VIYSDGRETFYGPSVK | GRAAGTFDS the result was ND, ND, 4.19 (controls 2 of 9). The variant GFTLNSYGIS | VIYSDGRCTFYDDSVK | GRAAGTFDS gave ND, ND, ND (controls 1 of 9). With GFTLNCYGIS | VIYSDGRTTFYGDSVK | GRAAGTEDS the result was ND, ND, ND (controls 1 of 9). For GFTLNSYGIS | VIYSDGRITFYGDSVV | GRAAGTQDS, the assay gave ND, 3.12, ND (controls 1 of 9).

For GFTGNSYCIS | VIYSDGRPTFYGDSVK | GRAAGTFDS, the assay gave ND, 3.34, ND (controls 1 of 9). For GFTLNSYGWS | VIYSDGRWTWYGDSVK | GRAAGTFDS, the assay gave ND, 2.99, ND (controls 0 of 9). For GFTLNSYGLS | VIYSDGRCTFYGDSVK | GRAAGTFDS, the assay gave ND, ND, ND (controls 1 of 9). The variant GFTLNSYGIS | VIYSDGRPMFYGDSVK | GRAAGTFDS showed ND, ND, ND (controls 1 of 9). The variant GFTSNSYGIS | VIYSDGRKTFYGDSVK | GRAAETFDS showed ND, ND, ND (controls 0 of 9). For GFTLNSYGIS | VQYSDGRITFYGRSVK | GRAAGTFDS, the assay gave ND, ND, ND (controls 2 of 9).

The variant GFTLNSYGIS | VIESDGRDTFYGDSVK | GRAAGTFPS showed ND, ND, 5.09 (controls 1 of 9). The variant GFTLNSYGIS | IIYSAGRITFYGDSVK | GRAAGTFDS showed ND, 5.56, ND (controls 3 of 9). The variant GFTLNSYLIS | VIYSMGRCTFYGDSVK | GRAAGTFDS showed 4.30, 5.31, 5.60 (mean 5.07; controls 3 of 9). The variant GFTLNSYGIS | VIYSDGRMTFYGDSVK | GRAAGNFFS gave ND, ND, ND (controls 2 of 9). The variant GFTLNSYGIS | VIYSDGRETFYGDSVK | GRARGTMDS showed ND, ND, ND (controls 1 of 9). With GFTLNSYGIS | VIPSDGRQTFYGDSVK | GRAAGDFDS the result was ND, ND, ND (controls 0 of 9).

The variant GFTLNSYGIS | VIYSDGRHTFYGDSVK | GRAMGTFNS gave ND, 5.41, 4.19 (mean 4.80; controls 3 of 9). For GFTLNSYGWS | VIYSDGRQTFYGDSFK | GRAAGTFDS, the assay gave 5.88, 4.02, ND (mean 4.95; controls 2 of 9). The variant GFTLNSYGIS | VIYSDGRETFYGDSVK | GWAAGKFDS showed ND, ND, ND (controls 1 of 9). The variant GFTLNSYGIS | VIYSDGRWTFYGDSFK | GRAAGTFDS showed ND, 4.52, ND (controls 3 of 9).

The opening 3 entries, copied out:

GFTLNVYGIS | VIYSGGRGTFYGDSVK | GRAAGTFDS: ND, 3.88, 4.46 (mean 4.17; controls 7 of 9).
GFTLNMYGIS | VIYSDGRGTFYGDSVK | GRAAGLFDS: ND, 3.43, ND (controls 0 of 9).
GFTLNSYGIS | VIYSKGRMTFYGQSVK | GRAAGTFDS: 2.75, ND, ND (controls 0 of 9).

The measurements come from Engelhart et al. 2022 (doi:10.1038/s41597-022-01779-4) through the FLAb antibody collection.